# Results from US20050053580A1, “Use of microbiology non-viral substances for treating acne” (priority 2001, published 2005).
# Test system: SZ95 sebocytes
# Assay: SZ95 sebocyte proliferation, crystal violet assay
# Type: cell-based, human
# Conditions: 1 μM oligonucleotide, 4 h transfection, 14 h recovery
substance,measurement,value
5′-GCCAAGCUCAAGGAUGGAAGUGCAG-3′,toxicity (apoptosis/necrosis) to SZ95 sebocytes,probably toxic
